{"sequences": {"note": "Protein sequences, listed by entry. Tags and fused reporters are not part of them.", "UniProt P23219, whole entry": "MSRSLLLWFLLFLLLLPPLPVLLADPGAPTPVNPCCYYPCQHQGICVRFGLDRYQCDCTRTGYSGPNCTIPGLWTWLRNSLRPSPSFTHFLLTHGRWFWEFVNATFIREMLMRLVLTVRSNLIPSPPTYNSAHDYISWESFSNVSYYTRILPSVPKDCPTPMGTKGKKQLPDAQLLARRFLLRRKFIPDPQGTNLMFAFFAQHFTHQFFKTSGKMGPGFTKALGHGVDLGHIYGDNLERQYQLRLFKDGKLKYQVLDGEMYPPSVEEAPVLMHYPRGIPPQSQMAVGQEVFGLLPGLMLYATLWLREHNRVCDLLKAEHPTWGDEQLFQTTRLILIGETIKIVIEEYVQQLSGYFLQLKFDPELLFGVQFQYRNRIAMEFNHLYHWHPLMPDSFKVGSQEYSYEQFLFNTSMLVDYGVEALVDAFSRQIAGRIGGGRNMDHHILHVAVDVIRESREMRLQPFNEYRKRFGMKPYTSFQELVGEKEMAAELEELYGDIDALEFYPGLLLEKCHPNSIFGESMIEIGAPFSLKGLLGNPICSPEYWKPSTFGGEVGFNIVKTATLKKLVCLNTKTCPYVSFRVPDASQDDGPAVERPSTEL"}, "source": "ChEMBL document CHEMBL1287644", "about": "“The novel benzopyran class of selective cyclooxygenase-2 inhibitors. Part III: the three microdose candidates” (Bioorg Med Chem Lett, 2010)", "key": {"[1]": {"target": "Prostaglandin G/H synthase 1 (Homo sapiens, UniProt P23219)", "test": "Inhibition of human COX-1"}, "[2]": {"species_on_record": "Homo sapiens", "test": "Selectivity ratio of IC50 for human COX1 to IC50 for human COX2"}}, "data": [{"compound": "Cc1cc(OC(F)(F)F)cc2c1O[C@@H](C(F)(F)F)C(C(=O)O)=C2", "values": [{"measurement": "IC50", "setting": "[1]", "value": 62700, "unit": "nM"}]}, {"compound": "Cc1cc(OC(F)(F)F)cc2c1O[C@H](C(F)(F)F)C(C(=O)O)=C2", "values": [{"measurement": "IC50", "setting": "[1]", "value": 2690, "unit": "nM"}]}, {"compound": "Cc1cc(OC(F)(F)F)cc2c1OC(C(F)(F)F)C(C(=O)O)=C2", "note": "(centres undefined)", "values": [{"measurement": "IC50", "setting": "[1]", "value": 140, "unit": "nM"}, {"measurement": "Ratio IC50", "setting": "[2]", "value": 9}]}]}
